Values quoted from earlier work in patent US20110014255A1, “PHYTOSANITARY FORMULATION GENERATING NANOPARTICLES, METHOD FOR PREPARING NANOPARTICLES AND USE THEREOF” (priority 2006, published 2011).

Conditions: % by weight

CCCCOP(=O)(OCCCC)OCCCC
miscibility in water: 0.04%
